# Data published in patent US10695346B2, “4,6-pyrimidinylene derivatives and uses thereof” (Dana-Farber Cancer Institute, Inc., priority 2015, dated 2020).
# Molecular target: T1, PIP4K2A (Homo sapiens, UniProt P48426)
# T1 sequence (P48426 1-406): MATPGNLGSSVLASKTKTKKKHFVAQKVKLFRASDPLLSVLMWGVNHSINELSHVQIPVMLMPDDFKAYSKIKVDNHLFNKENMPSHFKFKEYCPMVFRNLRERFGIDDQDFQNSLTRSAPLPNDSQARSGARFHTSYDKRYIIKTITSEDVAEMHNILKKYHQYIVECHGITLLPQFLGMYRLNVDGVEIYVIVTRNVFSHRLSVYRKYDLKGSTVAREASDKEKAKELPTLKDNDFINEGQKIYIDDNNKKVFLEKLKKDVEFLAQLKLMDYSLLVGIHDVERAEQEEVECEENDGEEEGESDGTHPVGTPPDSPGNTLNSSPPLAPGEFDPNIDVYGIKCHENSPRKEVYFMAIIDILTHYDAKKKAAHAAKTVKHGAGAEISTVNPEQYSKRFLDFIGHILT
# Assay: ADP-GLO assay on PIP4K2A
# Format: biochemical
# Procedure: After a further incubation of 40 minutes, 40 μl of Kinase Detection Buffer was added. After a further incubation of 40 min, the […] was read on […] ENVISION for 1 sec/well.
structure (smiles),measurement,value
"CN(C)CC=CC(=O)Nc1ccc(C(=O)Nc2cccc(Nc3cc(-c4c[nH]c5ccccc45)ncn3)c2)cc1 (stereo in doubt) [THZ-CE-A-4-2, (Z)—N-(3-((6-(1H-indol-3-yl)pyrimidin-4-yl)amino)phenyl)-4-(4-(dimethylamino)but-2-enamido)benzamide]",IC50,60 nM
